Source: patent publication US9387209B2, “Histone deacetylases (HDACs) inhibitors” (ANNJI PHARMACEUTICAL CO., LTD., priority 2012, dated 2016)

Protein sequences, listed by entry. Tags and fused reporters are not part of them. Residues count along the entry.
UniProt P05067, 672-711 limits assumed: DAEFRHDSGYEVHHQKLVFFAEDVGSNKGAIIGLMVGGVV

Key:
[1] = biological target: T1, zinc-mediated β-amyloid aggregation (Homo sapiens, UniProt P05067); assay: Anti-amyloid aggregation assay, thioflavin S; format: biochemical
Method: (§1) Anti-Amyloid Aggregation Assay.
(§2) The effects of compounds on inhibition of β-amyloid aggregation were assayed. The levels of β-amyloid aggregates were determined by thioflavin S, BCA or CR assays (Tables 1). Thioflavin S, and Congo red are for in vitro staining of aggregated β-amyloid. Bicinchoninic acid (BCA) assay determines the total protein level or concentration.

[2] = biological target: T1, zinc-mediated β-amyloid aggregation; assay: Anti-amyloid aggregation assay, BCA; format: biochemical
Method: as §1, §2

[3] = biological target: T1, zinc-mediated β-amyloid aggregation; assay: Anti-amyloid aggregation assay, CR (Congo red); format: biochemical
Method: as §1, §2

[4] = system: hippocampus-lesioned mice; assay: Rotarod test in Alzheimer disease model; settings: mouse, in vivo, ip, 10 mg/kg

Cc1nc2cc(/C=C/C(=O)NO)ccc2c(=O)n1-c1ccccc1 [Compound 1c, (2E)-3-(3,4-dihydro-2-methyl-4-oxo-3-phenylquinazolin-7-yl)-N-hydroxyacrylamide]
IC50 [1]: 18.4 µM
IC50 [2]: 11.1 µM
IC50 [3]: 44.1 µM
learning performance in rotarod test [4]: improved learning performance
